Amino acid sequences for entries named in this document (tags omitted).
UniProt P14842, whole entry: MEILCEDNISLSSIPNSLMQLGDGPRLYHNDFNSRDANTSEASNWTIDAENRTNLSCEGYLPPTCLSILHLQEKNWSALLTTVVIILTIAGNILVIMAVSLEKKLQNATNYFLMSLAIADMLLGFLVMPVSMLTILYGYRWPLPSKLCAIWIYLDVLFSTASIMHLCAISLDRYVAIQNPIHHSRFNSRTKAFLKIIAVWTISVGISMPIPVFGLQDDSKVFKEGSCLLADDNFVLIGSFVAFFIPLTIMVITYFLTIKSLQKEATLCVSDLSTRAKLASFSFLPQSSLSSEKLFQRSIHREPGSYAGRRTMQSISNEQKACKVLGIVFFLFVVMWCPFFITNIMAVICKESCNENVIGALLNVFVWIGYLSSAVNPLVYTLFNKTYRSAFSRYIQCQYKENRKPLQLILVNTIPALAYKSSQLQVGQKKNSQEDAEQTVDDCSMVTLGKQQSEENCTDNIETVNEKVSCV

In patent US4835157A, “Thieno- and furopyrimidine-2,4-dione piperidine derivatives as serotonin antagonists and alpha adrenergic blocking agents” (Ortho Pharmaceutical Corporation, priority 1988, dated 1989):

Molecular target: 5HT2 (Rattus norvegicus, UniProt P14842)
Experiment: Brain Serotonin (5-HT2) Radioreceptor Assay (3H-ketanserin displacement, rat frontal cortex membranes)
Assay type: binding
Set-up: dissected from brains obtained from female rats; from tissue; host or cells: frontal cortex of female rats (about 150 g), membrane fragments
Conditions: 15 min at 37° C
Experimental: Brain Serotonin (5-HT2) Radioreceptor Assay
The test objects of this Example were rat frontal cortex membranes. Mebrane fragments were prepared from the frontal cortex dissected from brains obtained from female rats (≈150 g). […] Compound bound to the receptor site was separated from the remaining unbound compound by vacuum filtration. […] Specific binding was determined by the difference between total counts bound and counts bound in the presence of 10^-6 M methysergide.

Compound: Cc1nc2sccn2c(=O)c1CCN1CCC(=C(c2ccc(F)cc2)c2ccc(F)cc2)CC1 [Ritanserin, reference compound]
- IC50: 2.1 nM
